The list shows a part of the results. Measured potencies and affinities stand elsewhere. Calls of active or inactive are those of the source.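 The calls were made as follows: active = fold induction of absorbance versus untreated yeast above a set limit, then at least 30% activation at any dose in follow-up; inconclusive = repeats straddling the limit, or above it without dose testing; inactive = fold induction below the set limit.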

A short description of this experiment: enhancers of respiration in Yfh1-depleted yeast, dose response, Friedreich's ataxia, plus single-dose screen (AID 1465). The conditions noted are these: S. cerevisiae Yfh1-off respiration, WST-1 reduction, 72 h; at 50 µM; active compounds read high.
`CS(=O)(=O)c1cc([N+](=O)[O-])c2no[n+]([O-])c2c1`: the fold induction is inactive: 1.46.
As for `O=P(Nc1nccs1)(c1ccccc1)c1nc2ccccc2s1` (stereo not given), the fold induction is inactive: 1.18.
Then `O=P(Nc1nccs1)(Oc1ccccc1)Oc1ccccc1`, with inactive: 0.98.
Take `CCOP1(=S)c2c(C)nn(CCC#N)c2N=C(c2ccccc2F)N1C` (stereo not given): the fold induction is inactive: 0.87.
Take `Nc1ccccc1[As](=O)(O)c1ccccc1`: the fold induction was inactive: 0.92.
Under `O=C(O)COc1ccc([As](=O)(O)O)cc1[N+](=O)[O-]` stands inactive: 1.
Then `NC(=O)Nc1ccc([As](=O)(O)O)cc1`, with inactive: 1.06; and `CN(C(=O)Cc1ccc(Cl)c(Cl)c1)[C@H]1CC[C@@]2(CCCO2)C[C@@H]1N1CCCC1`, with inactive: 1.02.
Consider `O=[N+]([O-])c1ccc2c(c1)nnn2O`, for which the fold induction is inactive: 0.97.
Then `CCOP1(=S)c2c(C)nn(CCC#N)c2N=C(c2ccc(F)cc2)N1C` (stereo not given), with inactive: 0.98; and `CN(C(=O)Cc1ccccc1)[C@@H]1CC[C@]2(CCCO2)C[C@H]1N1CCCC1`, with inactive: 1.02.
For `COc1cc(C(=O)NCC2(N3CCOCC3)CCCCC2)cc(Cl)c1OC(C)C`, the fold induction is inactive: 1.04.
Under `O=[As](O)(O)c1cccnc1` stands inactive: 1.02; under `O=C(OC1CN2CCC1CC2)c1ccc(Cl)cc1` (stereo not given), inactive: 1.01; under `O=[As](O)(c1cccc(O)c1)c1cccc(O)c1`, inactive: 1.11.
In the case of `Cc1cccc(OCC(=O)OC2CN3CCC2CC3)c1` (stereo not given), the fold induction is inactive: 0.96.
Then `CCCOP(=S)(Nc1nc(N)cc(=O)[nH]1)OCCC`, with inactive: 0.93.
Then `Nc1cccc2c([As](=O)(O)O)cccc12`, with inactive: 1.06; and `Cc1ccc(NCCc2c([N+](=O)[O-])cc([N+](=O)[O-])cc2[N+](=O)[O-])cc1`, with inactive: 1.24; and `CCOP(=O)(Nc1cccc2ccccc12)OCC`, with inactive: 1.08.
Then `COc1cc(C2NCCC3(OCCO3)C2(C)C)cc(OC)c1OC` (stereo not given), with inactive: 0.88; and `CN(CCCl)Cc1cc(Cl)c(NC2=NCCN2)c(Cl)c1`, with inactive: 1.03; and `CCOP(=O)(Nc1ccc(C)cn1)OCC`, with inactive: 1.07.
Turning to `O=P1(Nc2ccccn2)COc2ccccc2OC1`, the fold induction was inactive: 0.99.
With `CC(C)(C)C(=O)NC(Sc1ncccn1)C(Cl)(Cl)Cl` (stereo not given), the fold induction is inactive: 1.02.
Then `Clc1n[nH]nc1-c1nn[nH][15n]1`, with inactive: 1.02; and `CC1(CBr)Cn2c(nc3ccccc3c2=O)S1` (stereo not given), with inactive: 1.13; and `O=[As](O)(c1ccccc1Br)c1ccccc1Br`, with inactive: 1.11.
Turning to `CC(C)/C=N\N=C(\N)N[N+](=O)[O-]`, the fold induction was inactive: 0.99.
Under `CN(C(=O)Cc1ccc(Cl)c(Cl)c1)[C@@H]1CCCC[C@H]1N1CCCC1` stands inactive: 1.05; under `CC1CCC(C(C)C)C(OP(=O)(Nc2ccccn2)c2ccccc2)C1` (stereo not given), inactive: 1.01.
Then `Cc1nn(-c2ccccc2)c2c1P(=O)(N1CCOCC1)N(C)C(c1ccccc1)=N2` (stereo not given), with inactive: 1.01; and `O=C(/C=C/c1ccccc1)OC1CN2CCC1CC2` (stereo not given), with inactive: 1.01; and `CN(C)C1(CNC(=O)c2ccc(S(C)(=O)=O)cc2)CCCCC1`, with inactive: 0.96.
In the case of `O=P1(Nc2ncccn2)COc2ccccc2OC1`, the fold induction was inactive: 1.05.
Then `O=P1(Nc2ccc(Br)cn2)COc2ccccc2OC1`, with inactive: 0.98; and `O=[As](O)(c1cccs1)c1cccs1`, with inactive: 1.15.
As to `Cc1ccc(OCC(=O)OC2CN3CCC2CC3)cc1` (stereo not given), the fold induction is inactive: 0.88.
Under `Nc1cccc([As](=O)(O)c2ccccc2)c1` stands inactive: 1.02; under `CCOC(=O)Nc1ccc([As](=O)(O)O)c(O)c1`, inactive: 1.03; under `Cc1cc(SC(NC(=O)c2ccccc2)C(Cl)(Cl)Cl)nc(C(C)C)n1` (stereo not given), inactive: 0.79.
As for `CCOC(=O)Nc1cccc([As](=O)(O)O)c1`, the fold induction was inactive: 1.03.
Take `O=[N+]([O-])c1ccc(Nc2ccc(Oc3ccc([N+](=O)[O-])cc3[N+](=O)[O-])cc2)c([N+](=O)[O-])c1`: the fold induction is inactive: 1.03.
Then `O=P(Nc1ccccn1)(c1cccc2ccccc12)c1cccc2ccccc12`, with inactive: 0.96.
Under `Cc1cc(SC(NC=O)C(Cl)(Cl)Cl)ncn1` (stereo not given) stands inactive: 0.97; under `COP1(=S)c2c(C)nn(CCC#N)c2N=C(c2ccc(F)cc2)N1C` (stereo not given), inactive: 1.1; under `CCOC(=O)c1ccc(NC(=O)C(C)(CCl)SC)cc1` (stereo not given), inactive: 1.05.
Then `CCC(C)N(CC(C)C)C(=S)SC(NC(C)=O)C(Cl)(Cl)Cl` (stereo not given), with inactive: 0.93; and `Cc1cc(=O)[nH]c(N[N+](=O)[O-])n1`, with inactive: 1.01; and `O=C(OC1CN2CCC1CC2)C12CC3CC(CC(C3)C1)C2` (stereo not given), with inactive: 1.03.
`Cc1c2c(nc3ccccc13)SC(C(Cl)Cl)C2` (stereo not given): the fold induction was inactive: 0.69.
Then `COc1cc(I)ccc1[As](=O)(O)O`, with inactive: 0.99; and `COc1ccc2nc(NP(=O)(c3ccccc3)c3ccccc3)sc2c1`, with inactive: 1.09; and `COc1ccc(N/C(=N/P(=O)(N2CCOCC2)N2CCOCC2)N2CCOCC2)cc1`, with inactive: 1.04.
Then `C[As](=O)(O)c1cccc(C(=O)O)c1`, with inactive: 1.05.
Consider `O=[As](O)(c1ccc(O)cc1)c1ccccc1O`, for which the fold induction is inactive: 1.02.
Under `Cc1ccc2nc3c(c(C)c2c1)CC(C(Cl)Cl)S3` (stereo not given) stands inactive: 0.84; under `Cc1ccc(OP(=O)(Nc2ccc([N+](=O)[O-])cn2)Oc2ccc(C)cc2)cc1`, inactive: 1.16.
Then `CC(C)c1ccc(OP(=O)(Nc2ccccn2)Oc2ccccc2F)cc1` (stereo not given), with inactive: 0.99.
As to `ClCCSc1nnc(-c2cccnc2)o1`, the fold induction was inactive: 1.04.
Consider `O=[N+]([O-])c1cc([N+](=O)[O-])c(-c2ccn[nH]2)s1`, for which the fold induction is inactive: 1.07.
Under `CCN(CC)C(=S)SC(NC=O)C(Cl)(Cl)Cl` (stereo not given) stands inactive: 0.89; under `CC(C)NC(=O)NP(=O)(Oc1ccccc1)Oc1ccccc1`, inactive: 1.06; under `O=C(O)c1ccccc1[As](=O)(O)O`, inactive: 1.03.
Under `CC(=O)Nc1ccc([As](=O)(O)O)cc1` stands inactive: 1.06; under `O=P(Nc1nc2ccc(Cl)cc2s1)(c1ccccc1)c1ccccc1`, inactive: 1.09.
Then `Cc1ccc(NP(=O)(Oc2ccccc2F)Oc2ccccc2F)nc1`, with inactive: 1.02; and `CN(C(=O)Cc1ccc(Cl)c(Cl)c1)[C@H]1CCCC[C@@H]1N1CCCC1`, with inactive: 1.03; and `CCOP(=O)(Nc1ccccc1)OCC`, with inactive: 1.05.
For the compound `Cc1cc(SC(NC(=O)c2ccc(F)cc2)C(Cl)(Cl)Cl)ncn1` (stereo not given), the fold induction was inactive: 0.9.
Then `CCN(N=Nc1nonc1N)c1nonc1N`, with inactive: 0.87; and `Nc1cccc2ccc([As](=O)(O)O)cc12`, with inactive: 1.07; and `NC(=O)c1cc([N+](=O)[O-])cc([N+](=O)[O-])c1N`, with inactive: 1.11.
Under `Cc1ccc(N/C(=N/P(=O)(N2CCOCC2)N2CCOCC2)N2CCOCC2)cc1` stands inactive: 0.98; under `Cc1ccc(OP(=O)(Nc2nccs2)Oc2ccc(C)cc2)cc1`, inactive: 1.11; under `COc1ccccc1OP(=O)(Nc1ccc(C)cn1)Oc1ccccc1OC`, inactive: 1.07.
As to `Clc1ccc(Cl)c(NC2=NCC(CBr)S2)c1` (stereo not given), the fold induction was inactive: 1.12.
Regarding `CC(C)CC(=O)NC(Sc1ccc(Cl)cc1)C(Cl)(Cl)Cl` (stereo not given), the fold induction is inactive: 0.84.
`Cc1c2non([O-])c-2c(C)[n+](=O)[n+]1[O-]`: the fold induction is inactive: 1.07.
Under `O=C(NC(Sc1ccncn1)C(Cl)(Cl)Cl)c1ccccc1` (stereo not given) stands inactive: 1.18; under `Oc1ccccc1CNc1ccccn1`, inactive: 1.07.
Then `COc1ccc(C2=NCC(CBr)S2)cc1` (stereo not given), with inactive: 1.08.
On to `O=[N+]([O-])c1cccc2n[nH]nc12`, for which the fold induction was inactive: 0.983.
Then `CC(=O)N1C2C3N(C(C)=O)C1C1N(C(C)=O)C(C(N1C(C)=O)N3C(C)=O)N2C(C)=O`, with inactive: 1.07; and `CCc1nc2c(n1)c1c(non1O)c1c2no[n+]1[O-]`, with inactive: 1.1; and `O=[N+]([O-])c1cc([N+](=O)[O-])c(CCNc2ccccc2)c([N+](=O)[O-])c1`, with inactive: 1.08.
Consider `Cc1ccc(NP(=O)(Oc2ccccc2)Oc2ccccc2)nc1`, for which the fold induction is inactive: 1.06.
For the compound `C[N+]1=C2C=CC=CC=C2SC12C([N+](=O)[O-])=CC([N+](=O)[O-])=C[C-]2[N+](=O)[O-]` (stereo not given), the fold induction was inactive: 1.
Then `Nc1ccc([As](=O)(O)c2ccc(N)cc2)cc1`, with inactive: 1; and `CCN(/C(=N/P(=O)(N1CCOCC1)N1CCOCC1)N1CCOCC1)c1ccc(OC)cc1`, with inactive: 1.08.
Then `CN(C)C(=O)OCCc1n(C)cc[n+]1C`, with inactive: 1.09; and `CC(C)=N/N=C(\N)N[N+](=O)[O-]`, with inactive: 1.07; and `CC1CCN(C(=O)Oc2c(Cl)cc(Cl)c3cccnc23)CC1`, with inactive: 0.85.
Under `O=C(Nc1cc([As](=O)(O)O)ccc1O)c1ccccc1` stands inactive: 0.98; under `CC(C)(C)C(=O)NC(Sc1ccncn1)C(Cl)(Cl)Cl` (stereo not given), inactive: 1.11.
In the case of `O=[N+]([O-])c1ncn(CCn2ncnc2[N+](=O)[O-])n1`, the fold induction was inactive: 1.05.
Under `O=[N+]([O-])c1cccc(NC2=NCC(CBr)S2)c1` (stereo not given) stands inactive: 1.05; under `O=C(O)CNc1ccc([As](=O)(O)O)cc1`, inactive: 1.03; under `O=P(Nc1ccccn1)(c1ccc(Br)cc1)c1ccc(Br)cc1`, inactive: 1.07.
As to `C[C@H]1OP(=O)(Oc2ccccc2)[C@H](O)[C@H](O)[C@H]1N=[N+]=[N-]` (stereo not given in full), the fold induction was inactive: 1.09.
For the compound `O=P(Nc1nc2ccccc2s1)(c1ccccc1)c1ccccc1`, the fold induction is inactive: 1.08.
Under `O=[N+]([O-])c1ncn(CCn2cnc([N+](=O)[O-])n2)n1` stands inactive: 1.1; under `CC(=O)NC(SC(=S)N(C)C)C(Cl)(Cl)Cl` (stereo not given), inactive: 0.99; under `O=[As](O)(c1ccccc1)c1ccc(O)cc1`, inactive: 1.01.
As for `Nc1ccc([As](=O)(O)c2ccc([N+](=O)[O-])cc2)cc1`, the fold induction is inactive: 1.04.

The values above are taken from PubChem BioAssay AID1465 (SRMLSC, 2008).
